Molecular target: Adenosine receptor A2a (Homo sapiens, UniProt P29274)
Assay: Antagonist activity at human adenosine A2A receptor expressed in CHO-K1 cells preincubated for 15 mins before NECA addition measured after 5.5 to 6 hrs by beta-galactosidase reporter gene assay
Format: functional, cell-based

Ki: 1.07 µM
Compound: Nc1nc(-c2cccc(C(F)(F)F)c2)nc2sc(CN3CC=CC3)cc12

— ChEMBL document CHEMBL3217453, “Aminomethyl substituted thieno[2,3-d]pyrimidines as adenosine A2A receptor antagonists” (Medchemcomm, 2011)
